Patent publication US8846694B2, “Pyrrolidone derivatives for use as MetAP-2 inhibitors” (Merck Patent GmbH, priority 2008, dated 2014)

Protein sequences, listed by entry. Tags and fused reporters are not part of them.
UniProt P50579, whole entry: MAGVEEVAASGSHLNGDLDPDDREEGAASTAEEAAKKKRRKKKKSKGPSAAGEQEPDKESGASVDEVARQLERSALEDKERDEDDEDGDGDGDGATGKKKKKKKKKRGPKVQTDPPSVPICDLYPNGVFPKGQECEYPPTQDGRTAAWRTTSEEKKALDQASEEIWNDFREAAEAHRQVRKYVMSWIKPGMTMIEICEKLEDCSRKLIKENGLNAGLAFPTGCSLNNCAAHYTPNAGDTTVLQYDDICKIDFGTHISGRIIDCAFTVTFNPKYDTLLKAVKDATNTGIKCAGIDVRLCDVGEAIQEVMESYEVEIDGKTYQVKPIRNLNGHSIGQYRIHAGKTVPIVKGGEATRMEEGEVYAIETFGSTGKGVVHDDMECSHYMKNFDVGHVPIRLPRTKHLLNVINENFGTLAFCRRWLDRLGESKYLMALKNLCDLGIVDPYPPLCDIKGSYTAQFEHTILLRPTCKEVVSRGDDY

Target: MetAP-2 (Homo sapiens, UniProt P50579)
Test: MetAP-2 activity measurement (coupled enzymatic reactions, substrate Met-Arg-Ser, photometric at 450 nm)
Conditions: read-out: IC50 enzyme (Inhibition of MetAP-2)

Compound	IC50
CCCCOCc1ccc(OC[C@H]2CCCN2c2ncnc3[nH]cnc23)c2ccccc12	10 to 1000 nM
c1ccc2c(OC[C@H]3CCCN3c3ncnc4[nH]cnc34)ncnc2c1	> 10000 nM
